Literature values, collected in article PMC12281572.

experiment: FTIR, 4-fluorophenol as donor (the pK_BHX database, per the paper); conditions: CCl4; 25 C

Structure (SMILES)	pK_BHX (log10 Kf of the 1:1 H-bond complex with 4-fluorophenol, by FTIR)
Cc1c(N(C)C)c(=O)n(-c2ccccc2)n1C	2.45 log units
c1ccc2ccccc2c1	-0.48 log units
O=c1ccc2ccccc2o1	1.3 log units
